Where two headings read alike, the source gives them in different places.
Assays:
[1] = target: ERK2 (Homo sapiens (Human), UniProt P28482); experiment: Active ERK1 and ERK2 Kinase Assay (Mobility Shift Assay); assay type: biochemical; settings: read-out: ERK2 IC50, activated ERK2, Mobility Shift Assay
[2] = system: A375 (melanoma) cells; experiment: Proliferation Assay (CellTiter-Glo)

The chains behind the UniProt entries cited, without tags or fusion partners.
UniProt P28482, whole entry: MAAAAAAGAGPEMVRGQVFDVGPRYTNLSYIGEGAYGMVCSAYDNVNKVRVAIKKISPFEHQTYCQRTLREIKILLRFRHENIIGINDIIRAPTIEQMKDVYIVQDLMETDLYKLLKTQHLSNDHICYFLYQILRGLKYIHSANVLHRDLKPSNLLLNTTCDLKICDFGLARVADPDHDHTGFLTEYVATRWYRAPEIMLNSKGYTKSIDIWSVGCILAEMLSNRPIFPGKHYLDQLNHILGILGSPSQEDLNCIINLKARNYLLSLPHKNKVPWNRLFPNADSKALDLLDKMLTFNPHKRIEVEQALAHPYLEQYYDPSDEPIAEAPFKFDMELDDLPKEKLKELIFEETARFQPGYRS

| IC50 [1] [nM] | IC50 ([2]; read-out: A375 IC50, 3 days incubation, CellTiter-Glo luminescence) [nM] | IC50 ([1]; tested form: acetate) [nM] | IC50 ([2]; read-out: A375 IC50, 3 days incubation, CellTiter-Glo luminescence, tested form: acetate) [nM] | SMILES |
| --- | --- | --- | --- | --- |
| < 50 | < 500 |  |  | Cn1cc(-c2n[nH]c3ccc(N4CC[C@]5(CCN(CC(=O)N6CC=C(c7ccc(-c8nn(C)c(=O)o8)cc7)CC6)C5)C4=O)nc23)cn1 |
|  |  | < 50 | 500 to 1000 | COc1ccc(-c2n[nH]c3ccc(N4CC[C@]5(CCN(CC(=O)N6CCC(c7ccc(-c8ncn(C)n8)cc7)CC6)C5)C4=O)nc23)cn1 |

From US10934304B2, “Spirocyclic compounds” (Recurium IP Holdings, LLC, priority 2016, dated 2021)
